The values that follow are results of earlier work, collected in patent publication US4231925A, “Pentapeptides with analgesic activity on peripheral administration” (American Home Products Corporation, priority 1979, dated 1980).

Where two headings read alike, the source gives them in different places.

The conditions of data set [1]: rat blood plasma; cited from earlier work.
For data set [2] the following is noted: human blood plasma; cited from earlier work.

For the substance “H--Tyr--Gly--Gly--Phe--Leu--OH [Leu-enkephalin]”, the “breakdown in blood plasma” value in data set [1] and in data set [2] was “broken down” throughout.
